Biological target: T1, Arachidonate 5-lipoxygenase (Bos taurus, UniProt Q9BEG3)
T1 sequence (Q9BEG3 whole entry): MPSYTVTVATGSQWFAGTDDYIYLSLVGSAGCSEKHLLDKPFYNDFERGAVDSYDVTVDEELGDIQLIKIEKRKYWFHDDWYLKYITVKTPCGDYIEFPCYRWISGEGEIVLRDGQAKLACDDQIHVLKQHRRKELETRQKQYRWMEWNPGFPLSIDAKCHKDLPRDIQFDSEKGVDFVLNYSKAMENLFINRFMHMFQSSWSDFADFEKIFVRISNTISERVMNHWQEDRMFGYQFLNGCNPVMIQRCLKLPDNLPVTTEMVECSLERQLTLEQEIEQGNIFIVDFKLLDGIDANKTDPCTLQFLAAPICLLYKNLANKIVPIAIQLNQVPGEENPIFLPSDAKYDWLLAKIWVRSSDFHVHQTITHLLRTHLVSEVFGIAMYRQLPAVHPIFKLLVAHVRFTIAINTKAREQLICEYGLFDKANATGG
Test: 5-LO inhibitory activity, measured by production of 5-hydroxyeicosatetraenoic acid (5-HETE) and leukotriene B4 (LTB4) in bovine polymorphonuclear leukocytes
Type: functional, cell-based

Row | IC50 [nM] | Compound
1 | 6000 | CC(C(=O)NO)c1ccc2c(c1O)C(=O)c1c(O)cccc1C2 (stereo unspecified)
2 | 700 | CN(O)C(=O)c1ccc(Cc2ccc3c(c2O)C(=O)c2c(O)cccc2C3)cc1
3 | 1000 | O=C1c2c(O)cccc2Cc2ccc(C(Cc3ccccc3)C(=O)O)c(O)c21 (stereo unspecified)
4 | 600 | CN(O)C(=O)CCc1ccc2c(c1O)C(=O)c1c(O)cccc1C2
5 | 500 | CN(O)C(=O)CCCCc1ccc2c(c1O)C(=O)c1c(O)cccc1C2
6 | 2000 | CC(C)C(C(=O)O)c1ccc2c(c1O)C(=O)c1c(O)cccc1C2 (stereo unspecified)

Source: ChEMBL document CHEMBL1130128, “Antipsoriatic anthrones with modulated redox properties. 4. Synthesis and biological activity of novel 9,10-dihydro-1,8-dihydroxy-9-oxo-2-anthracenecarboxylic and -hydroxamic acids” (J Med Chem, 1997)
